Results from publication PMC11643450, “Pimozide and Adipic Acid: A New Multicomponent Crystalline Entity for Improved Pharmaceutical Behavior” (Molecules, 2024).

Assay: Solubility at equilibrium, shake flask method with spectrophotometric determination
Format: physicochemical
Conditions: for Solubility at Equilibrium: 21 °C
Experimental: The samples were sieved through a 230-mesh grid, 63 μm (Endecotts, London, UK).
The spectra of AAD and PMZ were recorded previously to prevent the possibility of interference in the absorbance of the two molecules. […] An excess sample is placed in the flasks containing the three different fluids and left under stirring. At time intervals, a portion of the solution was taken and filtered on a 0.22 μm filter (Millipore Merck, Darmstadt, Germany). The drug concentration was determined using UV detection (Lambda 25, Perkin-Elmer, Monza, Italy). The test was repeated until equilibrium was reached. The spectra of AAD and PMZ were recorded previously to prevent the possibility of interference in the absorbance of the two molecules.

- Solubility at Equilibrium (H2O (deionized water)): 8.9 ± 0.4 µg/mL
- Increase of solubility compared to pure PMZ (deionized water): about six times
- Increase of solubility compared to pure PMZ (fluid at pH = 2): doubles
- Solubility at Equilibrium (pH 2.0 (0.01N hydrochloric acid)): 335.1 ± 3.6 µg/mL
- Solubility at Equilibrium (pH 4.5 (phosphate buffer)): 27.3 ± 0.5 µg/mL
- Increase of solubility compared to pure PMZ (pH = 4.5): more than four times
Substance: [PMZH]2[adipate] [PMZ:AAD 0.66:0.33ev]
